Cneo AK release = Cryptococcus neoformans lysis via adenylate kinase release | C. neoformans lysis, adenylate kinase release luminescence, 4 h; normalised: neutral wells 0, clomiphene wells 100 | lysis activity, % at 15 µM | hit rate 0.2% among 360,000 | AID 651654;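 active = mean lysis activity across replicates of at least 80%, whatever share of replicates individually reach that level; inactive = mean lysis activity below 80%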
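Assay system: log-phase C. neoformans yeast / Quantity: yeast cell density of 5 × 10^6 cells/mL / Medium: fresh YPD growth medium / Compound: single dose / Timing: static 4 h at 37 °C with compound, 1 h detection / Measured by: adenylate kinase release luminescence / Read-out: lysis from increased AK signal / Benchmarks: Clomiphene as positive lysis control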
DENV2 CPE = DENV2-induced cell death inhibition. DENV2-infected cells, cytopathic effect rescue, plate reader. CPE inhibition, % at 9.99 µM. hit rate 1.7% among 350,000. AID 651640; in the data active = CPE inhibition above about 20%, passing the limit was not always enough; inconclusive = no clear call, values can overlap the other calls; tested in BHK-21 cells;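 note: 0% = median of neutral control wells and 100% = median of positive control wells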
Yeast UUG start-1 = modulators of yeast start codon fidelity, primary screen, whole organism, S. cerevisiae, single point, plate reader; S. cerevisiae UUG-firefly luciferase reporter, luminescence/redox ratio; activity score, % at 18.7 µM; 0.13% of 350,000 active; AID 602363, 2012;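 active = replicate mean at a twofold rise or more, about +100% in these data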;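 also: firefly luciferase made from a UUG start codon reports start codon fidelity; reporter light over untreated wells divided by growth signal over untreated wells; some hits fall short of that in this replicate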
E-sel inducer = induces E-selectin expression in human endothelial cells; HUVEC E-selectin immunofluorescence imaging; normalized: neutral wells 0, TNF-alpha wells 100; activation, % at 7.58 µM; hit rate 0.37% among 260,000;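 active = mean E-selectin-positive cell signal at least 10% of the positive control, reached in at least 60% of replicates, without over 20% cell loss; inconclusive = no rule given, readout overlaps actives, possibly toxicity-flagged; inactive = the rest, including those meeting only one limit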
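System: HUVEC, human umbilical vein endothelial cells; quantity: 3,000 cells/well; buffer or medium: EGM-2 medium, gelatin-coated wells; dosing: single-point compound dose; detection: immunofluorescence imaging; evaluation: % PE-positive cells; benchmarks: TNF-alpha, DMSO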
Yeast UUG start-2 = yeast start codon fidelity modulation; shares compounds with Yeast UUG start-1; S. cerevisiae UUG-start firefly luciferase, luminescence, 4 h; 100% means double the DMSO signal; activation, % at 38 µM; 540 tested, under 10 active; AID 652061;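 active = signal increase whose fitted curve reaches an absolute level of 40 at a concentration under 10 µM; inactive = activity opposite to the expected increase, or the rest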
* = called active by the depositor; i = inactive; ? = inconclusive; / = not tested or not shown. Compounds with a hit are over-represented: about 1.8% of the library has one in this group of screens.

cpd	compound	Cneo AK release	DENV2 CPE	Yeast UUG start-1	E-sel inducer	Yeast UUG start-2
1	OCCN(CC#CC(O)(c1ccccc1)C1CCCCC1)CCO (stereo not given)	1	3	6	0	/
2	OC(C#CCN1CCCCCC1)(c1ccccc1)c1cccnc1 (stereo not given)	/	-5	/	/	22
3	OC(C#CCN1CCCC1)(c1ccccc1)c1cccnc1 (stereo not given)	-1	-2	134*	0	-4
4	CCCN(CC#CC(O)(c1ccccc1)c1cccnc1)CCC (stereo not given)	/	-3	/	/	-3
5	O=C(CC1CC1)N1CC[C@@H]2[C@H]1c1cc(-c3ccccc3)ccc1N[C@@H]2CO	2	-3	-3	4	/
6	C[C@@H]1CN([C@H](C)CO)S(=O)(=O)c2ccc(C#CC3CC3)cc2O[C@@H]1CN(C)Cc1ccc(F)cc1	10	3	15	0	/
7	O=C(Nc1ccccc1)/C(=C/c1ccccc1)c1ccccc1	-6	/	-15	/	/
8	Cc1ccccc1NC(=O)/C(=C/c1ccccc1)c1ccccc1	-1	/	102*	/	-1
9	Cc1cc(-n2c(C)cc(C(=O)CSc3nncn3C)c2C)no1	-1	3	-24	0	/
10	Cc1cc(-n2c(C)cc(C(=O)CSc3nncn3C(C)C)c2C)no1	/	-1	/	-2	4
11	CC(C)NC(=O)Nc1ccc2c(c1)C(=O)N([C@H](C)CO)C[C@@H](C)[C@H](CN(C)CC1CCCCC1)OCCCC[C@H](C)O2	-10	0	/	0	/
12	CCC(=O)N1[C@@H](CO)[C@@H](c2ccccc2)C12CN(C(=O)Nc1cccc(OC)c1)C2	/	-9	/	0	/
13	O=C(c1cc(Cl)cc(Cl)c1)N1CCC2CC1c1cc(-c3ccc4c(c3)OCO4)ccc12 (stereo not given)	9	-3	active	0	9
14	COc1ccc(NC(=O)c2noc(C(C)C)c2[N+](=O)[O-])cc1	84*	0	528*	/	-3
15	COc1ccc(NC(=O)Nc2ccc3c(c2)C(=O)N([C@@H](C)CO)C[C@@H](C)[C@@H](CN(C)C(=O)NC2CCCCC2)O3)cc1	-8	7	9	0	/

Molecules listed so far that have four or more nitrogen atoms (four):
cpd	compound	Cneo AK release	DENV2 CPE	Yeast UUG start-1	E-sel inducer	Yeast UUG start-2
9	Cc1cc(-n2c(C)cc(C(=O)CSc3nncn3C)c2C)no1	-1	3	-24	0	/
10	Cc1cc(-n2c(C)cc(C(=O)CSc3nncn3C(C)C)c2C)no1	/	-1	/	-2	4
11	CC(C)NC(=O)Nc1ccc2c(c1)C(=O)N([C@H](C)CO)C[C@@H](C)[C@H](CN(C)CC1CCCCC1)OCCCC[C@H](C)O2	-10	0	/	0	/
15	COc1ccc(NC(=O)Nc2ccc3c(c2)C(=O)N([C@@H](C)CO)C[C@@H](C)[C@@H](CN(C)C(=O)NC2CCCCC2)O3)cc1	-8	7	9	0	/

Individual results from above:
Yeast UUG start-2 result of #14 reads -3
E-sel inducer result of #12 reads 0

Next structures:
cpd	compound	Cneo AK release	DENV2 CPE	Yeast UUG start-1	E-sel inducer	Yeast UUG start-2
16	CCc1cccc2c(C(=O)C(F)(F)F)cn(CC(=O)NCC3CCCO3)c12 (stereo not given)	/	3	/	0	-6
17	CC(C)C(=O)c1cn(CC(=O)NCC2CCCO2)c2ccccc12 (stereo not given)	0	/	449*	/	8
18	O=C(C1CCCCC1)N1CC[C@@H]2[C@@H](CO)Nc3ccc(C#Cc4ccc(F)cc4)cc3[C@@H]21	/	0	/	0	/
19	CN1C(=O)c2cc(NC(=O)c3cccc(F)c3)ccc2OC[C@@H]2O[C@@H](CC(=O)NC3CCC3)CC[C@H]21	-3	-5	-2	0	/
20	COc1cc(OC)cc(C(=O)Nc2cccc(NC(=O)c3cccs3)c2)c1	-10	-2	124*	-1	18
21	CO[C@H]1CN(C)C(=O)c2ccc(NC(=O)c3nc4ccccc4s3)cc2OC[C@@H](C)N(Cc2ccncc2)C[C@H]1C	-1	-5	140*	0	i
22	O=C(CN1CCOCC1)NCC[C@H]1CC[C@H](NC(=O)Nc2ccc(F)cc2)[C@H](CO)O1	2	-8	184*	0	i
23	O=C(CN1CCOCC1)NCC[C@@H]1CC[C@H](NC(=O)Nc2ccc(Cl)cc2)[C@@H](CO)O1	3	0	119*	1	i
24	COc1ccc(NC(=S)N(CCc2ccncc2)C(C)C)cc1Cl	-1	8	-15	/	/
25	CC(C)N(CCc1ccncc1)C(=S)Nc1ccc(F)c(Cl)c1	-6	0	263*	/	-11
26	COC(=O)C[C@H]1CC[C@H]2[C@@H](COc3ccc(NC(=O)c4cncs4)cc3C(=O)N2C)O1	2	-3	/	0	/
27	COc1cccc(Oc2ccc(OC)cc2C(=O)O)c1	3	?	117*	/	-17
28	COc1ccccc1NC(=O)N(C)C[C@H]1OCc2ccccc2-c2ccccc2C(=O)N([C@H](C)CO)C[C@H]1C	/	/	/	0	/
29	CC(C)[N+](C)(C)CC#CC(O)(c1ccccc1)c1ccccc1	/	17	/	/	7
30	C[N+]1(CC#CC(O)(c2ccccc2)c2ccccc2)CCCC1	/	-3	/	0	5
31	COc1cc(C)ccc1OCC(=O)OCC(=O)c1cc(C)n(CC2CCCO2)c1C (stereo not given)	4	1	6	15	/
32	COc1cc(C(=O)OCC(=O)c2cc(C)n(CC3CCCO3)c2C)cc(OC)c1C (stereo not given)	-5	5	107*	/	6
33	CCOc1ccc(C=NC23CN4CN(CN(C4)C2)C3)cc1	3	/	462*	/	8
34	O=C(CN1CCOCC1)NCC[C@@H]1CC[C@H](NS(=O)(=O)c2ccc(F)cc2)[C@@H](CO)O1	-21	-6	/	-1	/
35	CCN(CC)S(=O)(=O)c1cccc(-c2nnc(SCC(N)=O)n2CCc2ccccc2)c1	-1	/	-10	/	/
36	NC(=O)CSc1nnc(-c2ccncc2)n1CCc1ccccc1	-7	/	173*	/	-2
37	CCCC(=O)Nc1ccc2c(c1)OC[C@H](C)N(C(=O)C1CCCC1)C[C@H](C)[C@@H](OC)CN(C)C2=O	-2	-2	11	0	/
38	COc1ccc(C2CCCN2C(=S)Nc2cccc(C)c2)cc1OC (stereo not given)	/	-1	/	3	/
39	COc1ccc(NC(=S)N2CCCC2c2ccc(OC)c(OC)c2)cc1 (stereo not given)	0	3	339*	/	3
40	C[C@H]1CN([C@@H](C)CO)C(=O)c2cc(-c3ccc(C(=O)N(C)C)cc3)cnc2O[C@@H]1CN(C)C(=O)c1ccncc1	1	-7	/	0	/
41	Cc1noc(C)c1S(=O)(=O)N1CCCC(C(=O)Nc2cccnc2)C1 (stereo not given)	-3	/	614*	/	-4
42	COc1ccc(S(=O)(=O)N(C)C[C@@H]2Oc3c(NC(=O)Nc4ccc(C(F)(F)F)cc4)cccc3C(=O)N([C@H](C)CO)C[C@@H]2C)cc1	-8	10	-3	/	/
43	CC(C)CC#Cc1ccc2c(c1)O[C@@H](CN(C)C(=O)Cc1ccccc1)[C@H](C)CN([C@H](C)CO)S2(=O)=O	0	-2	1	0	/
44	C[C@H]1CN([C@@H](C)CO)S(=O)(=O)c2ccc(C#CCC3CCCC3)cc2O[C@@H]1CN(C)C(=O)CN(C)C	4	-10	32	0	/
45	C[C@@H]1CN([C@@H](C)CO)S(=O)(=O)c2ccc(C#CCC3CCCC3)cc2O[C@@H]1CN(C)Cc1ccc(C(=O)O)cc1	2	-12	6	0	/
46	C[C@H](CO)N1C[C@H](C)[C@H](CN(C)Cc2ccc(C(=O)O)cc2)Oc2cc(C#CCC3CCCC3)ccc2S1(=O)=O	4	4	182*	0	i
47	C[C@@H]1CN([C@H](C)CO)S(=O)(=O)c2ccc(C#CCC3CCCC3)cc2O[C@H]1CN(C)C(=O)CN(C)C	0	-2	112*	3	i

Screens (PubChem)
